Consider 1 variant from IntAct's records for PubMed 35512704.

To fix the notation:
B1: RAC-alpha serine/threonine-protein kinase (Homo sapiens), P31749 (parent)
chain: MSDVAIVKEGWLHKRGEYIKTWRPRYFLLKNDGTFIGYKERPQDVDQREAPLNNFSVAQCQLMKTERPRPNTFIIRCLQWTTVIERTFHVETPEEREEWTTAIQTVADGLKKQEEEEMDFRSGSPSDNSGAEEMEVSLAKPKHRVTMNEFEYLKLLGKGTFGKVILVKEKATGRYYAMKILKKEVIVAKDEVAHTLTENRVLQNSRHPFLTALKYSFQTHDRLCFVMEYANGGELFFHLSRERVFSEDRARFYGAEIVSALDYLHSEKNVVYRDLKLENLMLDKDGHIKITDFGLCKEGIKDGATMKTFCGTPEYLAPEVLEDNDYGRAVDWWGLGVVMYEMMCGRLPFYNQDHEKLFELILMEEIRFPRTLGPEAKSLLSGLLKKDPKQRLGGGSEDAKEIMQHRFFAGIVWQHVYEKKLSPPFKPQVTSETDTRYFDEEFTAQMITITPPDQDDSMECVDSERRPHFPQFSYSASGTA

Variants of B1 are the subject of one assay. To be noted: with pebb_human CBFB.
MSDVAIVKEGWLHKRGKYIKTWRPRYFLLKNDGTFIGYKERPQDVDQREAPLNNFSVAQCQLMKTERPRPNTFIIRCLQWTTVIERTFHVETPEEREEWTTAIQTVADGLKKQEEEEMDFRSGSPSDNSGAEEMEVSLAKPKHRVTMNEFEYLKLLGKGTFGKVILVKEKATGRYYAMKILKKEVIVAKDEVAHTLTENRVLQNSRHPFLTALKYSFQTHDRLCFVMEYANGGELFFHLSRERVFSEDRARFYGAEIVSALDYLHSEKNVVYRDLKLENLMLDKDGHIKITDFGLCKEGIKDGATMKTFCGTPEYLAPEVLEDNDYGRAVDWWGLGVVMYEMMCGRLPFYNQDHEKLFELILMEEIRFPRTLGPEAKSLLSGLLKKDPKQRLGGGSEDAKEIMQHRFFAGIVWQHVYEKKLSPPFKPQVTSETDTRYFDEEFTAQMITITPPDQDDSMECVDSERRPHFPQFSYSASGTA [E17K]: the “effect of a mutation on the interaction” value is “with no effect”.

Variants of B1 are the subject of a further assay. Particulars: with ccnd1_human CCND1.
As for MSDVAIVKEGWLHKRGKYIKTWRPRYFLLKNDGTFIGYKERPQDVDQREAPLNNFSVAQCQLMKTERPRPNTFIIRCLQWTTVIERTFHVETPEEREEWTTAIQTVADGLKKQEEEEMDFRSGSPSDNSGAEEMEVSLAKPKHRVTMNEFEYLKLLGKGTFGKVILVKEKATGRYYAMKILKKEVIVAKDEVAHTLTENRVLQNSRHPFLTALKYSFQTHDRLCFVMEYANGGELFFHLSRERVFSEDRARFYGAEIVSALDYLHSEKNVVYRDLKLENLMLDKDGHIKITDFGLCKEGIKDGATMKTFCGTPEYLAPEVLEDNDYGRAVDWWGLGVVMYEMMCGRLPFYNQDHEKLFELILMEEIRFPRTLGPEAKSLLSGLLKKDPKQRLGGGSEDAKEIMQHRFFAGIVWQHVYEKKLSPPFKPQVTSETDTRYFDEEFTAQMITITPPDQDDSMECVDSERRPHFPQFSYSASGTA [E17K], the “effect of a mutation on the interaction” value is listed as “with no effect”.

Variants of B1 are the subject of the next assay. To be noted: with ccnd2_human CCND2, P30279.
In the case of MSDVAIVKEGWLHKRGKYIKTWRPRYFLLKNDGTFIGYKERPQDVDQREAPLNNFSVAQCQLMKTERPRPNTFIIRCLQWTTVIERTFHVETPEEREEWTTAIQTVADGLKKQEEEEMDFRSGSPSDNSGAEEMEVSLAKPKHRVTMNEFEYLKLLGKGTFGKVILVKEKATGRYYAMKILKKEVIVAKDEVAHTLTENRVLQNSRHPFLTALKYSFQTHDRLCFVMEYANGGELFFHLSRERVFSEDRARFYGAEIVSALDYLHSEKNVVYRDLKLENLMLDKDGHIKITDFGLCKEGIKDGATMKTFCGTPEYLAPEVLEDNDYGRAVDWWGLGVVMYEMMCGRLPFYNQDHEKLFELILMEEIRFPRTLGPEAKSLLSGLLKKDPKQRLGGGSEDAKEIMQHRFFAGIVWQHVYEKKLSPPFKPQVTSETDTRYFDEEFTAQMITITPPDQDDSMECVDSERRPHFPQFSYSASGTA [E17K], the “effect of a mutation on the interaction” value is reported as “with no effect”.

A further assay covers variants of B1. To be noted: with ccne1_human CCNE1.
MSDVAIVKEGWLHKRGKYIKTWRPRYFLLKNDGTFIGYKERPQDVDQREAPLNNFSVAQCQLMKTERPRPNTFIIRCLQWTTVIERTFHVETPEEREEWTTAIQTVADGLKKQEEEEMDFRSGSPSDNSGAEEMEVSLAKPKHRVTMNEFEYLKLLGKGTFGKVILVKEKATGRYYAMKILKKEVIVAKDEVAHTLTENRVLQNSRHPFLTALKYSFQTHDRLCFVMEYANGGELFFHLSRERVFSEDRARFYGAEIVSALDYLHSEKNVVYRDLKLENLMLDKDGHIKITDFGLCKEGIKDGATMKTFCGTPEYLAPEVLEDNDYGRAVDWWGLGVVMYEMMCGRLPFYNQDHEKLFELILMEEIRFPRTLGPEAKSLLSGLLKKDPKQRLGGGSEDAKEIMQHRFFAGIVWQHVYEKKLSPPFKPQVTSETDTRYFDEEFTAQMITITPPDQDDSMECVDSERRPHFPQFSYSASGTA [E17K]: the “effect of a mutation on the interaction” value is recorded as “with no effect”.

In another assay the parent is B1. Particulars: with cd44_human CD44, P16070.
For MSDVAIVKEGWLHKRGKYIKTWRPRYFLLKNDGTFIGYKERPQDVDQREAPLNNFSVAQCQLMKTERPRPNTFIIRCLQWTTVIERTFHVETPEEREEWTTAIQTVADGLKKQEEEEMDFRSGSPSDNSGAEEMEVSLAKPKHRVTMNEFEYLKLLGKGTFGKVILVKEKATGRYYAMKILKKEVIVAKDEVAHTLTENRVLQNSRHPFLTALKYSFQTHDRLCFVMEYANGGELFFHLSRERVFSEDRARFYGAEIVSALDYLHSEKNVVYRDLKLENLMLDKDGHIKITDFGLCKEGIKDGATMKTFCGTPEYLAPEVLEDNDYGRAVDWWGLGVVMYEMMCGRLPFYNQDHEKLFELILMEEIRFPRTLGPEAKSLLSGLLKKDPKQRLGGGSEDAKEIMQHRFFAGIVWQHVYEKKLSPPFKPQVTSETDTRYFDEEFTAQMITITPPDQDDSMECVDSERRPHFPQFSYSASGTA [E17K], the “effect of a mutation on the interaction” value is reported as “with no effect”.

In a further assay the parent is B1. Particulars: with cd79a_human CD79A.
Turning to MSDVAIVKEGWLHKRGKYIKTWRPRYFLLKNDGTFIGYKERPQDVDQREAPLNNFSVAQCQLMKTERPRPNTFIIRCLQWTTVIERTFHVETPEEREEWTTAIQTVADGLKKQEEEEMDFRSGSPSDNSGAEEMEVSLAKPKHRVTMNEFEYLKLLGKGTFGKVILVKEKATGRYYAMKILKKEVIVAKDEVAHTLTENRVLQNSRHPFLTALKYSFQTHDRLCFVMEYANGGELFFHLSRERVFSEDRARFYGAEIVSALDYLHSEKNVVYRDLKLENLMLDKDGHIKITDFGLCKEGIKDGATMKTFCGTPEYLAPEVLEDNDYGRAVDWWGLGVVMYEMMCGRLPFYNQDHEKLFELILMEEIRFPRTLGPEAKSLLSGLLKKDPKQRLGGGSEDAKEIMQHRFFAGIVWQHVYEKKLSPPFKPQVTSETDTRYFDEEFTAQMITITPPDQDDSMECVDSERRPHFPQFSYSASGTA [E17K], the “effect of a mutation on the interaction” value is reported as “with no effect”.

Variants of B1 are the subject of another assay. Particulars: with cd79b_human CD79B.
On to MSDVAIVKEGWLHKRGKYIKTWRPRYFLLKNDGTFIGYKERPQDVDQREAPLNNFSVAQCQLMKTERPRPNTFIIRCLQWTTVIERTFHVETPEEREEWTTAIQTVADGLKKQEEEEMDFRSGSPSDNSGAEEMEVSLAKPKHRVTMNEFEYLKLLGKGTFGKVILVKEKATGRYYAMKILKKEVIVAKDEVAHTLTENRVLQNSRHPFLTALKYSFQTHDRLCFVMEYANGGELFFHLSRERVFSEDRARFYGAEIVSALDYLHSEKNVVYRDLKLENLMLDKDGHIKITDFGLCKEGIKDGATMKTFCGTPEYLAPEVLEDNDYGRAVDWWGLGVVMYEMMCGRLPFYNQDHEKLFELILMEEIRFPRTLGPEAKSLLSGLLKKDPKQRLGGGSEDAKEIMQHRFFAGIVWQHVYEKKLSPPFKPQVTSETDTRYFDEEFTAQMITITPPDQDDSMECVDSERRPHFPQFSYSASGTA [E17K], for which the “effect of a mutation on the interaction” value is given as “with no effect”.
